Assays:
[1] = target: soluble guanylate cyclase (human GUCYA3 and GUCYB3) overexpressed in CHO cells (Homo sapiens (Human), UniProt Q02153); assay: CHO cellular assay (cGMP production, Cisbio cGMP HTRF kit); type: cell-based; conditions: CHO GUCY clone 8E10, cGMP production, assay buffer with 1 mM IBMX and 20 uM ODQ, 1 h room temperature; minimum quantification limit 0.5 nM (listed 0.5 nM means ≤0.5 nM)
Excerpt: (§1) Chinese hamster ovary (CHO) cells overexpressing soluble guanylate cyclase were generated to test the effect of sGC activators in a cellular context. Human cDNAs for GUCYA3 (RefSeq: NM_000856.3) and GUCYB3 (RefSeq: NM_000857.1) were amplified by PCR from a HUVEC (Human Umbilical Vein Endothelial Cells) cDNA library and cloned into mammalian expression vectors. CHO K1 cells (ATCC CCL-61) were transfected using Lipofectamine 2000 following manufacturer's instructions and stably expressing clones were identified by antibiotic selection. CHO GUCY clone 8E10 was used for subsequent experiments. Cells were seeded at a density of 3000 cells/well in white 384-well proxyplates (Perkin Elmer) and incubated overnight, then the medium was removed and cells were washed with assay buffer (HBSS, 0.1% BSA. 1 mM IBMX, 20 uM ODQ). sGC activators were serially diluted in DMSO, then diluted in assay buffer prior to adding to cells (10 ul/well, final DMSO concentration 0.5%). Cells were incubated with compounds for 1 h room temperature, then assayed for cGMP production using Cisbio cGMP HTRF kit (62GM2PEC) according to manufacturer's instructions. The EC50s are calculated based on the amount of cGMP interpolated from the standard curve, using a 4-parameter sigmoidal dose-response.

Sequences of proteins named here, by UniProt entry; tags and fusion partners are left off. A change or cut given only in a name is not applied to a line headed by its entry.
UniProt Q02153: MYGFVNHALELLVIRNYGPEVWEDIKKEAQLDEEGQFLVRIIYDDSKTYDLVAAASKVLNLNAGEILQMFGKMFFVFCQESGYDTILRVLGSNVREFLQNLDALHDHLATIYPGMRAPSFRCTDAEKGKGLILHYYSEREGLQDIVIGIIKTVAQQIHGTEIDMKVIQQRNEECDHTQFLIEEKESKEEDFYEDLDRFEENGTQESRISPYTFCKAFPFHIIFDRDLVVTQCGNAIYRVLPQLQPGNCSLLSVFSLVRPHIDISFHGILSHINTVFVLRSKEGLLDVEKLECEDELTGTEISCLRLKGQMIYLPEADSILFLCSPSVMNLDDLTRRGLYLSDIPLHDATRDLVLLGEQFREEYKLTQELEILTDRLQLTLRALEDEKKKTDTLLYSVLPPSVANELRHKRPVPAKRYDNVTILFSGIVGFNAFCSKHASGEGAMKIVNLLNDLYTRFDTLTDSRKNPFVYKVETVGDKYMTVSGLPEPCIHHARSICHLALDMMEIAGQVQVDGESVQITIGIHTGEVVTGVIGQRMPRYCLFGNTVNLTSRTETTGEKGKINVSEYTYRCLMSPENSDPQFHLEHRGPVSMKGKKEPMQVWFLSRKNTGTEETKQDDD
UniProt Q02108, whole entry partner: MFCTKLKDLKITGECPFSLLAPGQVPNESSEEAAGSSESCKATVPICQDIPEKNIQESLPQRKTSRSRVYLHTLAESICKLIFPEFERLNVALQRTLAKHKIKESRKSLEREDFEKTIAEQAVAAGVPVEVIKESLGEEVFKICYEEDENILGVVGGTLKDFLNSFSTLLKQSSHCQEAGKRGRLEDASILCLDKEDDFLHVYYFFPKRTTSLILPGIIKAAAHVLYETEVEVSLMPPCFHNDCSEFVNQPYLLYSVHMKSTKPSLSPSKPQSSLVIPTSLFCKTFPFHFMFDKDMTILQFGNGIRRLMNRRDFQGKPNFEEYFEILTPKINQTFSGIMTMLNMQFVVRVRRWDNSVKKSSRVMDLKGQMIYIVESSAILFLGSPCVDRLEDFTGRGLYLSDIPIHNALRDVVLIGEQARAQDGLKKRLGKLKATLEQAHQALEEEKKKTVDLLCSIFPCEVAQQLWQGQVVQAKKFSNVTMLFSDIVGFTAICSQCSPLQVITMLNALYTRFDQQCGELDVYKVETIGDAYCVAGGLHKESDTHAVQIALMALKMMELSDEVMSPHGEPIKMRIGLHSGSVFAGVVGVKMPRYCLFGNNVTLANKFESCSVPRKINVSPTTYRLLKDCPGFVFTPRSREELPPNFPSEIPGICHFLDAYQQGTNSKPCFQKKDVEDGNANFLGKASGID

[2] = target: soluble guanylate cyclase (human GUCYA3 and GUCYB3) overexpressed in CHO cells (Homo sapiens (Human), UniProt Q02108+Q02153); assay: as above; type: cell-based; conditions: CHO GUCY clone 8E10, cGMP production, assay buffer with 1 mM IBMX and 20 uM ODQ, 1 h room temperature; minimum quantification limit 0.5 nM (listed 0.5 nM means ≤0.5 nM)
Excerpt: as §1

EC50 [1] [nM]	EC50 [2] [nM]	Molecule
12	–	(−)-6-Ethyl-1-(6-(3-((3-ethyl-4-(1-(S)-2-hydroxybutanoyl)piperidin-4-yl)phenyl)amino)-2,3-dihydro-1H-inden-4-yl)pyridin-2-yl)-1H-pyrazole-4-carboxylic Acid [Example 50b]
4.5	–	(−)-1-(6-(1-(4-(1-(Cyclopropanecarbonyl)piperidin-4-yl)-3-ethylbenzyl)-2-methylindolin-7-yl)pyridin-2-yl)-8-ethyl-1H-pyrazole-4-carboxylic Acid [Example 22b]
–	4.5	CCc1cc(Cn2cc(C)c3cccc(-c4cccc(-n5ncc(C(=O)O)c5C(F)(F)F)n4)c32)ccc1C1CCN(C(=O)C2CC2)CC1 [Example 28, 1-(6-(1-(4-(1-(Cyclopropanecarbonyl)piperidin-4-yl)-3-ethylbenzyl)-3-methyl-1H-indol-7-yl)pyridin-2-yl)-5-(trifluoromethyl)-1H-pyrazole-4-carboxylic Acid]

From patent publication US10550102B2, “Indane and indoline derivatives and the use thereof as soluble guanylate cyclase activators” (NOVARTIS AG, priority 2014, dated 2020)
